{
  "source": "patent US12226386B2",
  "about": "“Compositions and methods for treating biofilms” (The Regents of the University of California, priority 2018, dated 2025)",
  "key": {"C. albicans biofilms [1]": {"tested_on": "C. albicans biofilms", "assay": "in vitro sustained inhibition biofilm assay, fungal", "format": "cell-based, Candida albicans", "settings": "0.4% amino acid, p<0.001", "protocol": "(§1) In vitro biofilm formation was tested using two assays, sustained inhibition and disruption. Both assays assess biofilm formed on polystyrene plates. The first, tests the effects of amino acid solution on a developing biofilm, while the latter tests the effects of the solution on a pre-formed mature biofilm, both compared to media without supplemented amino acids.\n(§2) Other amino acids in the blood of animals could combat bacterial and fungal biofilm and therefore may be useful in treating these bacterial and fungal infections that would lie on the external surfaces of infected animals such as humans and could also be used to combat these pathogens on instruments and surfaces that need to be treated. Two types of biofilm assays were performed: a sustained inhibition assay and a disruption assay. The sustained inhibition assay assessed the compound's ability to prevent biofilm development throughout all stages of biofilm formation, while the disruption assay assessed the compound's ability to break up an existing mature biofilm.\n(§3) For fungal biofilm assays, all solutions were prepared in RPMI 1640 medium. […]\n(§4) Fungal strains were streaked on Yeast Peptone Dextrose (YPD) agar plates and incubated at 30° C. for 48 hours. […] Media was carefully aspirated and the biofilm was measured by optical density at 600 nm. […] Media was carefully aspirated and the biofilm was measured by optical density at 600 nm. […]"}, "C. albicans biofilms [2]": {"tested_on": "C. albicans biofilms", "assay": "in vitro biofilm disruption assay, fungal", "format": "cell-based, Candida albicans", "settings": "0.4% amino acid, p<0.001", "protocol": "as §1, §2, §3, §4"}},
  "data": [
    {"compound": "N[C@@H](CCS)C(=O)O", "note": "[Homocysteine, L-homocysteine]", "values": [
      {"measurement": "Reduce F Biofilm", "setting": "C. albicans biofilms [1]", "value": "● (a single dot [i.e. ●] signifies minor effect (from about 10 to about 30% change))"},
      {"measurement": "Reduce F Biofilm", "setting": "C. albicans biofilms [2]", "value": "● (a single dot [i.e. ●] signifies minor effect (from about 10 to about 30% change))"}
    ]}
  ]
}
